We go through one compound from ChEMBL document CHEMBL4813982, “Novel pyrazolo[4,3-d]pyrimidine microtubule targeting agents (MTAs): Synthesis, structure-activity relationship, in vitro and in vivo evaluation as antitumor agents” (Bioorg Med Chem Lett, 2021).

In one test the test system is NCI/ADR-RES. Briefly: Antiproliferative activity against human NCI/ADR-RES cells overexpressing Pgp. The format is functional, cell-based.
Test [1] is described as follows: Resistance ratio of IC50 for antiproliferative activity against human NCI/ADR-RES cells expressing Pgp to IC50 for antiproliferative activity against human OVCAR-8 cells. The format is functional.

As a reminder, the IC50 is the concentration that inhibits the measured activity by half. High values mean weaker potency in that assay, low ones greater potency in that assay. In turn, `CC(=O)O[C@H]1C(=O)[C@@]2(C)[C@H]([C@H](OC(=O)c3ccccc3)[C@]3(O)C[C@H](OC(=O)[C@H](O)[C@@H](NC(=O)c4ccccc4)c4ccccc4)C(C)=C1C3(C)C)[C@]1(OC(C)=O)CO[C@@H]1C[C@@H]2O` [PACLITAXEL] had a concentration for half-maximal inhibition (IC50) in the test on NCI/ADR-RES of 800 nM. Moreover, the “Ratio IC50” value in test [1] is listed as 150.
